Results: article PMC6698841

Chains of the proteins cited; added tags and fusions are not shown. Where a name states a change or a piece, a line headed by the entry shows the natural chain unless it says otherwise. A line that says so, or that is headed by a name, gives the form on record, which may keep a tag or linker.
Variant 791 (trastuzumab with heterodimerising CH3 mutations only, no CH2 mutations) (human), light, as listed by the source, chain 2 of 2: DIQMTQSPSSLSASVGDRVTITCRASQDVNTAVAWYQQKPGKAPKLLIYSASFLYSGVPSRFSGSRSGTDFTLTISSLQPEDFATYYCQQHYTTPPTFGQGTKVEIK

Biological target: Variant 791 (trastuzumab with heterodimerising CH3 mutations only, no CH2 mutations) (human)
Test: SPR; ProteOn XPR36, 25 °C; 10 mM HEPES, 150 mM NaCl, 3.4 mM EDTA, 0.05% Tween 20, pH 7.4; trastuzumab variants captured (approx. 500 RU) on amine-coupled recombinant HER-2 (GLM chip); FcγRs injected as analyte, five concentrations in 3-fold dilution; Equilibrium Fit model, mean of two or three runs

In the case of “FcγR 2b (from UniProt P31994 43-310) (receptor)”, the Kamut/KaWT (WT: homodimeric trastuzumab) is reported as 1.2.
